Chains of the proteins cited; added tags and fusions are not shown.
UniProt Q13285, whole entry: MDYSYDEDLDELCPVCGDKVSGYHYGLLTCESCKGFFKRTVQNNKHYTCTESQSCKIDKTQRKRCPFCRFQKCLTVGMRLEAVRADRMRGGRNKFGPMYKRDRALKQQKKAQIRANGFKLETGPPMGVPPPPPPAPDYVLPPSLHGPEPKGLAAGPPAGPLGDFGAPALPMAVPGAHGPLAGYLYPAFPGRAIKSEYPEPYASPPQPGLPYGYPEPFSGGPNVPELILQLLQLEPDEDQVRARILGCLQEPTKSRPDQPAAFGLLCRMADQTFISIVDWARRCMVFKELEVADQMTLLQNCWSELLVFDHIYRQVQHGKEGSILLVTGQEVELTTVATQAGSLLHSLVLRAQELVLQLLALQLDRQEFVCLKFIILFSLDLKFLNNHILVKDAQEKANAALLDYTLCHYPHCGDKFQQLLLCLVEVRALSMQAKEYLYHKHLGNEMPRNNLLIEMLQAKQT

In ChEMBL document CHEMBL4342491, “Development of a Versatile and Sensitive Direct Ligand Binding Assay for Human NR5A Nuclear Receptors” (ACS Med Chem Lett, 2020):

Legend:
Steroidogenic factor 1 [1] = molecular target: T1, Steroidogenic factor 1 (Homo sapiens, UniProt Q13285); assay: Binding affinity to human SF1 LBD (218 to 461 residues) expressed in Escherichia coli BL21 by electrophoretic mobility shift assay
Steroidogenic factor 1 [2] = molecular target: T1, Steroidogenic factor 1

Compound: C=C(c1ccccc1)[C@@]12CC[C@@H](O)[C@@H]1CC(CCCCCC)=C2c1ccccc1
- Kd (Steroidogenic factor 1 [1]): 1200 nM
- Ki (Steroidogenic factor 1 [2]): 3300 nM
